Results: PMC7734798 (ACS Medicinal Chemistry Letters, 2020)
Read-outs that look alike come from different tables or passages of the source.

System: Oli-Neu cells (immortalized mouse oligodendrocyte precursor cells)
Conditions: 24 h; for toxicity against Oli-Neu cells (in words): 1–10 μM, MTT

SMILES | cell survival/death in Oli-Neu cells, % mean ± SE of controls (MTT) (0.5 μM) | cell survival/death in Oli-Neu cells, % mean ± SE of controls (MTT) (1 μM) | cell survival/death in Oli-Neu cells, % mean ± SE of controls (MTT) (5 μM) | cell survival/death in Oli-Neu cells, % mean ± SE of controls (MTT) (10 μM) | toxicity against Oli-Neu cells (in words)
CC/C=C\C/C=C\C/C=C\CCCCCCCC(=O)O [ALA, α-linolenic acid, reference compound] | 78 ± 5 ^b % | 75 ± 9% | 71 ± 8 ^b % | 68 ± 6 ^b % | –
CCCC(CCC)C(=O)O [VPA, valproic acid, reference compound] | 75 ± 7 ^b % | – | – | – | –
CC/C=C\C/C=C\C/C=C\CCCCCCCC(=O)NCCNC(=O)C(CCC)CCC [compound 1] | 89 ± 9% | 95 ± 8% | 88 ± 5 ^c % | – | no toxicity
CC/C=C\C/C=C\C/C=C\CCCCCCCC(=O)NCCOC(=O)C(CCC)CCC [compound 2] | 110 ± 4% | 115 ± 7 ^b % | 105 ± 8% | 101 ± 8% | no toxicity
